In PubChem BioAssay AID1511 (Johns Hopkins Ion Channel Center, 2009) one finds activation (rescue from dofetilide block), less the hit threshold data, which are given here for 31 compounds.

Protein sequences, listed by entry. Tags and fused reporters are not part of them.
UniProt Q12809, whole entry: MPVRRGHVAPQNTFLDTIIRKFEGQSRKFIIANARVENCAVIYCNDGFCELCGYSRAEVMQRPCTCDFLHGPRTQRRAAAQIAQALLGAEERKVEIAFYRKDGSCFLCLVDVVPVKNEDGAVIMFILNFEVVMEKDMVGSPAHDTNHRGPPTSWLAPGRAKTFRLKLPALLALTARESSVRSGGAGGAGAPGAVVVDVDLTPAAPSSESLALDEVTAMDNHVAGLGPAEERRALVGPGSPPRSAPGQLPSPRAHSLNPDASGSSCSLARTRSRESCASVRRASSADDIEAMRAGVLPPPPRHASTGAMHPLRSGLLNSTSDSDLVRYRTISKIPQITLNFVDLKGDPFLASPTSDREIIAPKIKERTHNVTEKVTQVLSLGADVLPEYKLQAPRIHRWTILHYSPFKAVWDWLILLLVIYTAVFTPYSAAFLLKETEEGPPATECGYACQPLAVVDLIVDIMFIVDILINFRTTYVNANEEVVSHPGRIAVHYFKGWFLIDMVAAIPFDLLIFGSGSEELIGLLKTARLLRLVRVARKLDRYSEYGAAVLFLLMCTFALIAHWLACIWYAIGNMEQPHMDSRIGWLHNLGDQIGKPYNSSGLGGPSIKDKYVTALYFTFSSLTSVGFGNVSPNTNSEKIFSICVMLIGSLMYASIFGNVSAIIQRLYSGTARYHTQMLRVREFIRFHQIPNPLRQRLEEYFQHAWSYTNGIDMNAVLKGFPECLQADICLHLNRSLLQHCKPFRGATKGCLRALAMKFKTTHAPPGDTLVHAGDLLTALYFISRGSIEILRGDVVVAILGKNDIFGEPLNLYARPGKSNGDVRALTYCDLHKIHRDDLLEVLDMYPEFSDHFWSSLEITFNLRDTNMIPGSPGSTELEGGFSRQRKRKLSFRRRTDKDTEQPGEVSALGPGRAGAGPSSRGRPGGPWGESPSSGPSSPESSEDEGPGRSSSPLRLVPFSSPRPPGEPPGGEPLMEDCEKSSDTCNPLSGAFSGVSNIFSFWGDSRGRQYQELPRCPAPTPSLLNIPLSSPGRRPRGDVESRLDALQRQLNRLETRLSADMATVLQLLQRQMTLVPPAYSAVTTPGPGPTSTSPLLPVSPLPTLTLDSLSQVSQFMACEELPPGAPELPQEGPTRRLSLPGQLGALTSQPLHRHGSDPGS

The list shows a part of the results, in another mix than the full data. The source made the active and inactive calls.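 Rule for the calls: active = activation above the mean of controls blocked by dofetilide plus 5 SD; inactive = the rest.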

The target of the assay is Voltage-gated inwardly rectifying potassium channel KCNH2 (Homo sapiens) (UniProt Q12809). In words: PubChem AID 1511.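 Note: thallium influx through hERG after potassium depolarization seen as dye fluorescence rise.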 As to conditions: CHO-hERG, FluxOR thallium flux, dofetilide IC70 present; at 10 µM; stronger effect = higher value.
`COc1cc(C(=O)NCC2(N(C)C)CCCCC2)ccc1OC(F)F`: the activation (rescue from dofetilide block), less the hit threshold is inactive: -6.75%.
The value for `Cc1ccc(OCC(C)C)c(CN(CCCl)CCCl)c1` was inactive: -3.48%; that for `CCOc1ccc(C)cc1CN(CCCl)CCCl` was inactive: -8.15%.
The figure for `O=C(NCC1(N2CCCCC2)CCCCC1)c1ccc(F)cc1` is inactive: -7.03%; for `COc1ccc(NC2CCN(CCc3ccccc3)CC2)c(OC)c1` it is inactive: -7.89%.
The figure for `CCOC(=O)N1CCC(Nc2ccc(F)cc2)CC1` is inactive: -5.44%; for `CCN1CCC(Nc2cccc(F)c2)CC1` it is inactive: -5%.
With `CN(C)c1ccc(C(=O)NCC2(N3CCCCC3)CCCCC2)cc1`, the activation (rescue from dofetilide block), less the hit threshold is inactive: -12.7%.
Consider `COc1cc(OC)cc(C(=O)NCC2(N3CCCCC3)CCCCC2)c1`, for which the activation (rescue from dofetilide block), less the hit threshold is inactive: -7.23%.
Regarding `Cc1ccc(C(=O)NCC2(N3CCCCC3)CCCCC2)o1`, the activation (rescue from dofetilide block), less the hit threshold was inactive: -7.74%.
As for `Fc1ccccc1NC1CCN(Cc2ccccc2)CC1`, the activation (rescue from dofetilide block), less the hit threshold is inactive: -3.6%.
The value for `CCC(CO)(C(=O)OC1CN2CCC1CC2)c1ccccc1` (stereo unspecified) was inactive: 0.33%.
The value for `COc1cc(OC)cc(C(=O)NCC2(N3CCOCC3)CCCCC2)c1` was inactive: -12.2%; that for `COc1cccc(C(=O)N(c2cc(C)cc(C)c2)C2CCN(C(=O)OC(C)(C)C)CC2)c1` was inactive: -2.91%.
The figure for `CCCOc1ccc(C)cc1CN(CCCl)CCCl` is inactive: -12.8%.
With `CN1CCC(Nc2ccc(Cl)cc2)CC1`, the activation (rescue from dofetilide block), less the hit threshold is inactive: -10.8%.
With `CCOc1ncccc1C(=O)NCC1(N2CCOCC2)CCCCC1`, the activation (rescue from dofetilide block), less the hit threshold is inactive: -13.3%.
The figure for `CN1CCC(Nc2ccc(F)c(Cl)c2)CC1` is inactive: 0.28%; for `CCCOc1ccc(C(=O)NCC2(N(C)C)CCCCC2)cc1` it is inactive: -10.9%.
The value for `CC(C)(C)OC(=O)N1CCC(Nc2ccccc2)CC1` was inactive: -18.4%; that for `O=C(O)C1(Nc2ccccc2)CCN(Cc2ccccc2)CC1` was inactive: -4.36%; that for `N/C(=N\O)c1c(N)no[n+]1[O-]` was inactive: -11.5%.
The figure for `CCOC(=O)N1CCC(Nc2ccc(C)cc2)CC1` is inactive: -1.45%; for `CCc1cc(C(=O)NCC2(N3CCCCC3)CCCCC2)sc1C` it is inactive: -10.4%.
In the case of `O=C(OC1CN2CCC1CC2)C1c2ccccc2C=Cc2ccccc21` (stereo unspecified), the activation (rescue from dofetilide block), less the hit threshold is inactive: -6.03%.
The value for `COc1ccc(C(=O)NCC2(N3CCOCC3)CCCCC2)cc1OC` was inactive: -24%.
The figure for `c1ccc(CN2CCC(Nc3ccccc3)CC2)cc1` is inactive: 0.58%.
The value for `CCCN1CCC(Nc2cc(OC)cc(OC)c2)CC1` was inactive: -6.5%.
`CN(C)C1(CNC(=O)c2cccc(C#N)c2)CCCCC1`: the activation (rescue from dofetilide block), less the hit threshold is inactive: -3.06%.
The figure for `CC(C)(C)OC(=O)N1CCC(N(C(=O)c2ccccc2)c2ccc(Cl)cc2)CC1` is inactive: -11.3%.
The figure for `N#Cc1ccc(C(=O)NCC2(N3CCCCC3)CCCCC2)cc1` is inactive: -3.92%.
